Results from PMC12297955, “Comparative Study: Biguanide-, Sulfonamide-, and Natural Agent-Based Interventions in an In Vivo Experimental Diabetes Model” (Medicina, 2025).

Details: rat, in vivo, po

## N-(diaminomethylene)-4-methylbenzenesulfonamide
  Volume of distribution at steady state (Vd): 23.92 ± 8.40 L
